Assay results as given in PubChem BioAssay AID1477 (National Center for Advancing Translational Sciences (NCATS), 2009).
The list shows a part of the results, in another mix than the full data. Some tests of the compounds listed are not included; inactive here does not mean inactive elsewhere. Results filed as inconclusive are left out. The source made the active and inactive calls. Calls come from the whole dose curve; as a rule, active = well fitted curve in the direction sought with a large enough effect; inconclusive = small, poorly fitted or top-dose-only effect, or effect the other way, or another doubt; inactive = no such curve, though single readings can be large or run the other way.

Chains of the proteins cited; added tags and fusions are not shown.
UniProt Q01196, whole entry partner: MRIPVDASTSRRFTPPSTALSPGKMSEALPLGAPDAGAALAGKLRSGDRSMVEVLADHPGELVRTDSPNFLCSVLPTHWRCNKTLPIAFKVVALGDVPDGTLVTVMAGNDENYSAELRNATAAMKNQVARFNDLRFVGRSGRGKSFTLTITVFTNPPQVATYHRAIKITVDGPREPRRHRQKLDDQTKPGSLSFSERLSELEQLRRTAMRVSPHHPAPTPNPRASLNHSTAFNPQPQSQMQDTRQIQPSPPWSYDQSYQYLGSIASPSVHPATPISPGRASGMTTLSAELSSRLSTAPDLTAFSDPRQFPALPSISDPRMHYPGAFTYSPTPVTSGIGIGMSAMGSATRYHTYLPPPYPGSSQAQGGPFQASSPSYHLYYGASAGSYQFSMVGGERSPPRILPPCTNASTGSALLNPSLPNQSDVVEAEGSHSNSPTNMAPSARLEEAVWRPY
UniProt Q13951, whole entry: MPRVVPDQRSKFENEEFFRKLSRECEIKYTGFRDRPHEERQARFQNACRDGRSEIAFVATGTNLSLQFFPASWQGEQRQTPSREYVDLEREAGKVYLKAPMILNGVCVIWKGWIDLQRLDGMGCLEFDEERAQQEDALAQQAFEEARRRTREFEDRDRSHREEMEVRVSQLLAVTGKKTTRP

The compounds below were run against Runt-related transcription factor 1 (Homo sapiens) + Core-binding factor subunit beta (Homo sapiens) (UniProt Q01196+Q13951) (assay: qHTS Assay for Compounds Blocking the Interaction Between CBF-beta and RUNX1 for the Treatment of Acute Myeloid Leukemia). Conditions: AlphaScreen CBFb-His/RUNX1-biotin binding, biochemical; at 59.8 µM (top of the series).
Note: % of control where 0% means no effect.

SMILES | activity, negative = inhibition
COc1ccc(Br)c(C(=O)NCC2(N3CCCCC3)CCCCC2)c1 | inactive: 1.08%
CN(C)c1cccc(C(=O)NCC2(N(C)C)CCCCC2)c1 | inactive: -16.4%
O=C(OC1CN2CCC1CC2)C(CO)(c1ccccc1)c1ccccc1 (stereo unspecified) | inactive: 6.85%
COc1cccc(C(=O)NCC2(N3CCCCC3)CCCCC2)c1 | inactive: -2.27%
C=CCN1CCN(CCOC(=O)C(O)(c2ccccc2)c2ccccc2)CC1 | inactive: -5.62%
CCN1CCCC(OC(=O)C2(O)c3ccccc3C=Cc3ccccc32)C1 (stereo unspecified) | inactive: 0.724%
CN(C)C1CCCC1OC(=O)C(O)(c1ccccc1)c1ccccc1 (stereo unspecified) | inactive: -0.283%
Cc1ccccc1C(=O)NCC1(N2CCCCC2)CCCCC1 | inactive: 10.8%
CCN(CC)CC(C)C(C)OC(=O)C(O)(c1ccccc1)c1ccccc1 (stereo unspecified) | inactive: 8.92%
CC(C)N1C(=O)CC2(CCN(CCOC(=O)C(O)(c3ccccc3)c3ccccc3)CC2)C1=O | inactive: 3.87%
O=C(NCC1(N2CCCCC2)CCCCC1)c1cc([N+](=O)[O-])ccc1Cl | inactive: 2.58%
